Only a part is listed here, and it is no random draw. Some salts or complexes appear as unconnected parts, following the source record. The source made the active and inactive calls. Cut-off read from the data, not from the text of the source: active = growth inhibition above about 70%; inactive = the rest.
Experiments:
[1] = NCI Yeast Anticancer Drug Screen. Data for the rad50 strain (AID 155);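 note: 0% = growth of vehicle-only cultures of the same strain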; details: S. cerevisiae rad50 strain growth inhibition; at 50.0 µM; hits give high values
[2] = NCI Yeast Anticancer Drug Screen. Data for the mec2-1 strain (AID 157); details: S. cerevisiae mec2-1 strain, at 50.0 µM, hits give high values
[3] = NCI Yeast Anticancer Drug Screen. Data for the sgs1 mgt1 strain (AID 161);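 note: 0% = growth of cultures given vehicle only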; details: S. cerevisiae sgs1 mgt1 strain, at 50.0 µM, hits give high values
[4] = NCI Yeast Anticancer Drug Screen. Data for the cln2 rad14 strain (AID 165);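 note: 0% = growth equal to vehicle treated cultures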; details: S. cerevisiae cln2 rad14 strain, at 50.0 µM, hits give high values
[5] = NCI Yeast Anticancer Drug Screen. Data for the bub3 strain (AID 167); details: S. cerevisiae bub3 mutant strain, at 50.0 µM, hits give high values
[6] = NCI Yeast Anticancer Drug Screen. Data for the mlh1 rad18 strain (AID 175); details: S. cerevisiae mlh1 rad18 strain growth inhibition; at 50.0 µM; hits give high values

Measured: growth inhibition

O=[N+]([O-])c1cc([N+](=O)[O-])c(C(F)(F)F)c([N+](=O)[O-])c1O
inactive: [1] -9.25% | [2] -3% | [3] 24.8% | [4] -4.25% | [5] -8.9% | [6] 9.85%

CN=C(N)C(N)=NC.O=[N+]([O-])c1cc([N+](=O)[O-])c(O)c([N+](=O)[O-])c1
inactive: [1] 4.95% | [2] 18.3% | [3] 26.9% | [4] 9.25% | [5] -8.65% | [6] 7.45%

Cc1cccc2c1ccc1cc3ccccc3cc12.O=C1c2cc([N+](=O)[O-])ccc2-c2c1cc([N+](=O)[O-])cc2[N+](=O)[O-]
inactive: [1] 23.4% | [2] -1.35% | [3] 13.2% | [4] -4.75% | [5] 8.5% | [6] 17.4%

CCCCCc1ccccn1.O=[N+]([O-])c1cc([N+](=O)[O-])c(O)c([N+](=O)[O-])c1
inactive: [1] -0.2% | [2] 0.8% | [3] -12.4% | [4] -10.4% | [5] -2.25% | [6] -13.9%

NCc1ccncc1.O=[N+]([O-])c1cc([N+](=O)[O-])c(O)c([N+](=O)[O-])c1
inactive: [1] 9.1% | [2] 4.3% | [3] 5.45% | [4] -4.8% | [5] 36.5% | [6] 22.4%

CC(C)OP(C)(=O)O.[Y]
inactive: [1] 0.6% | [2] -5.65% | [3] -1% | [4] -12.1% | [5] 8.3% | [6] -0.65%

O=[N+]([O-])c1cc([N+](=O)[O-])c(O)c([N+](=O)[O-])c1.c1ccc(C2=c3ccc4c5c(ccc(c35)=N2)=C(c2ccccc2)N=4)cc1
inactive: [1] 65.3% | [2] 15.2% | [3] 63% | [4] 25.9% | [5] 7.55% | [6] 48.3%

Cc1ccncc1F.O=[N+]([O-])c1cc([N+](=O)[O-])c(O)c([N+](=O)[O-])c1
inactive: [1] -15.9% | [2] -22.3% | [3] 6.9% | [4] 0.35% | [5] 6.75% | [6] 10.9%

NC(=O)N/N=C(\N)N[N+](=O)[O-]
inactive: [1] 0.55% | [2] -7.95% | [3] -2.85% | [4] -41.5% | [5] -6.65% | [6] -3.35%

CCCC(C[S+](C)C)[S+](C)C.O=[N+]([O-])c1cc([N+](=O)[O-])c(S(=O)(=O)[O-])c([N+](=O)[O-])c1
inactive: [1] 37.2% | [2] 38.1% | [3] 63.9% | [4] 20.1% | [5] 26.9% | [6] 65%

CCN(CC)CCOC(=O)C(O)(c1ccccc1)c1ccc(OC)cc1 (configuration not stated)
inactive: [1] 30.1% | [2] 22.4% | [3] 39.1% | [4] 1.65% | [5] 0.65% | [6] 27.7%

CCCC[PH+](CCCC)CCCC.CS(=O)[O-].[C-]#[O+].[Fe+6].[c-]1[c-][c-][cH-][c-]1
inactive: [1] 23.1% | [2] 18.1% | [3] 17.9% | [4] 6.15% | [5] 2.55% | [6] 8.2%

CC(C)OP(C)(=O)O.[Ti]
inactive: [1] -7.9% | [2] -16.9% | [3] -8.9% | [4] -40.5% | [5] -19.4% | [6] -13.2%

CN1CCC2(CC1)NC1CCN(C)CC1S2 (configuration not stated)
inactive: [1] 29% | [2] -1% | [3] 2.7% | [4] -1.15% | [5] -0.6% | [6] 37.1%

NNC(NN)NN.n1nc(-c2nn[nH]n2)n[nH]1
inactive: [1] -23.3% | [2] -1.5% | [3] 6.15% | [4] 7.55% | [5] 27.4% | [6] 8.75%

CCCCC(CC)COP(O)OCC(CC)CCCC.[Zn+2] (configuration not stated)
inactive: [1] -11.4% | [2] -16.4% | [3] -14.3% | [4] -11.6% | [5] -14.7% | [6] 0.05%

CCNCCN=C(N)C(N)=NCCNCC
inactive: [1] 16.2% | [2] 14.6% | [3] 46.4% | [4] -5.15% | [5] 0.1% | [6] 38.2%

From PubChem BioAssay (NCI)
